{"sequences": {"note": "Sequences of proteins named here, by UniProt entry; tags and fusion partners are left off.", "UniProt P33261, whole entry": "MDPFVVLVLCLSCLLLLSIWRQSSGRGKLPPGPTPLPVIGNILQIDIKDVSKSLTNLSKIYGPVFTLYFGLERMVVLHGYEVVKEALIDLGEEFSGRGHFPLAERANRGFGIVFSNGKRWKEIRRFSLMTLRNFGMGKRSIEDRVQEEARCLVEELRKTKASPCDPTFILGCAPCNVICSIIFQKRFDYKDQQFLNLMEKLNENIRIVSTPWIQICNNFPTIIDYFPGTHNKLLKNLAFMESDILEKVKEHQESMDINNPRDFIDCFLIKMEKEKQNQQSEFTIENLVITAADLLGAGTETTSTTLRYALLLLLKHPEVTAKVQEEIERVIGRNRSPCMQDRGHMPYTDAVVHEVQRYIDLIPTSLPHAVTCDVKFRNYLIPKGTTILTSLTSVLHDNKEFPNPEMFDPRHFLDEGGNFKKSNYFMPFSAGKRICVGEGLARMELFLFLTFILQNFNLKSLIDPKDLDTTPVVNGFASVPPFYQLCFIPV"}, "source": "PubChem BioAssay AID1025", "about": "(Sanford-Burnham Center for Chemical Genomics, 2008)", "note": "Some of the results follow. Activity calls are given as the source filed them.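 How the source made its calls: active means activation factor of at least 2 at 5 µM in the primary screen; inactive means the rest.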", "data": [{"target": "Cytochrome P450 2C19 (Homo sapiens) (UniProt P33261)", "experiment": "human CYP2C19 activators, primary screen, biochemical, luminescence (AID 1025);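 further: 0 = wells with 2.5 mM tranylcypromine and 1 = vehicle-only wells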", "conditions": "recombinant CYP2C19, luciferin-H EGE luminescence; at 5 µM; hits give high values; 0 = fully inhibited enzyme, 1 = untreated enzyme", "values": [{"smiles": "CCC(CO)(C(=O)OC1CN2CCC1CC2)c1ccccc1", "note": "(stereo not given)", "activation factor": "inactive: 1"}, {"smiles": "CCOc1ncccc1C(=O)NCC1(N2CCOCC2)CCCCC1", "activation factor": "inactive: 0.5"}, {"smiles": "Fc1ccccc1NC1CCN(Cc2ccccc2)CC1", "activation factor": "inactive: 0.1"}, {"smiles": "c1ccc(CN2CCC(Nc3ccccc3)CC2)cc1", "activation factor": "inactive: 0.1"}, {"smiles": "N/C(=N\\O)c1c(N)no[n+]1[O-]", "activation factor": "inactive: 1"}, {"smiles": "O=C(NCC1(N2CCOCC2)CCCCC1)c1cc(=O)[nH]c2ccccc12", "activation factor": "inactive: 1.1"}, {"smiles": "N#CC1(Nc2ccccc2)CCN(CCc2ccccc2)CC1", "activation factor": "inactive: 0.6"}, {"smiles": "COc1ccc(NC2CCN(CCc3ccccc3)CC2)c(OC)c1", "activation factor": "inactive: 1"}, {"smiles": "O=C(NCC1(N2CCOCC2)CCCCC1)c1cc2ccccc2o1", "activation factor": "inactive: 0.9"}, {"smiles": "O=C(OC1CN2CCC1CC2)C1c2ccccc2Oc2ccccc21", "note": "(stereo not given)", "activation factor": "inactive: 0.9"}]}]}
